# Assay results taken from ChEMBL document CHEMBL1134687, “Synthesis and structure-activity relationships of naphthamides as dopamine D3 receptor ligands” (J Med Chem, 2001).
# Protein sequences, listed by entry. Tags and fused reporters are not part of them.
# UniProt P61169, whole entry: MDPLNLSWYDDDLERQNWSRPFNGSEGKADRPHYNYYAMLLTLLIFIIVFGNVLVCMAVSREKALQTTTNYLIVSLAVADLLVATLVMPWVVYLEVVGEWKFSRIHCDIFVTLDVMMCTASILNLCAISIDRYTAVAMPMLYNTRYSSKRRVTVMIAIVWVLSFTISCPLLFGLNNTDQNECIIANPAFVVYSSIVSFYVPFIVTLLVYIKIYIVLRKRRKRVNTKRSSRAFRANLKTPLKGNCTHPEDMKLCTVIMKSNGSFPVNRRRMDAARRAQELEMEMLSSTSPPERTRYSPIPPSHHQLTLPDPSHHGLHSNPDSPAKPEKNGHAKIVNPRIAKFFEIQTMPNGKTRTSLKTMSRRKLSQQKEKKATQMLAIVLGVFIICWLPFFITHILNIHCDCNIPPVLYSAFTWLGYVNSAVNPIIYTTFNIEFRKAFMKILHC
# pKi: −log10 of the molar value.
# Biological target: D(2) dopamine receptor (Rattus norvegicus, UniProt P61169)
# Test: Binding affinity for dopamine receptor D2 long expressed in Sf9 cells using [125I]IABN radioligand.
smiles,measurement,value
COc1c(C(=O)NC[C@H]2CCCN2C2CCCCCC2)cc(Br)c2ccccc12,pKi,7.20
COc1c(C(=O)NC[C@@H]2CCCN2C2CCCCCC2)cc(Br)c2ccccc12,pKi,7.10
